What was measured:
LdCYP5122A1 [1] = target: T1, LdCYP5122A1 (Leishmania donovani, UniProt A0A3S7X0B6)
T1 sequence (A0A3S7X0B6 61-592): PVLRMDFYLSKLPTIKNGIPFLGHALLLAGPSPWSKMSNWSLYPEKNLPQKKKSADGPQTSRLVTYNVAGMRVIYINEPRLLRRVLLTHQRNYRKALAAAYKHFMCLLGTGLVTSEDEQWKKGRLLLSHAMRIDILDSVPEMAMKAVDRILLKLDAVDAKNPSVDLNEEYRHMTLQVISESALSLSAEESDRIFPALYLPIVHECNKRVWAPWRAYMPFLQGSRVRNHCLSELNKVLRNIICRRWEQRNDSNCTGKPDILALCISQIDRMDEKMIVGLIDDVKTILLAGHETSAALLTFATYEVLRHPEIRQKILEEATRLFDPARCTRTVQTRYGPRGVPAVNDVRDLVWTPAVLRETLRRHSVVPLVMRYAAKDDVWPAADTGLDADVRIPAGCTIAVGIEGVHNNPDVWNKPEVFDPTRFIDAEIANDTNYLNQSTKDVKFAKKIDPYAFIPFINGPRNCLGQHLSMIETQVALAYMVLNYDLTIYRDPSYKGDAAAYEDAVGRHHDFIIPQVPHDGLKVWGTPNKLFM

LdCYP5122A1 [2] = target: T1, LdCYP5122A1; test: biochemical

CC[C@@H]([C@H](C)O)n1ncn(-c2ccc(N3CCN(c4ccc(OC[C@@H]5CO[C@@](Cn6cncn6)(c6ccc(F)cc6F)C5)cc4)CC3)cc2)c1=O [Posaconazole]
SI (selectivity index) = IC50 against LdCYP5122A1/IC50 against LdCYP51 (LdCYP5122A1 [1]): 25
IC50 (LdCYP5122A1 [2]): 1500 ± 300 nM

From paper PMC11528044 (Nature Communications, 2024)
